# From patent US8969343B2, “Histone demethylase inhibitors” (priority 2012, dated 2015)
# Target: T1, JMJD2C (Homo sapiens, UniProt Q9H3R0)
# T1 sequence (Q9H3R0 2-372): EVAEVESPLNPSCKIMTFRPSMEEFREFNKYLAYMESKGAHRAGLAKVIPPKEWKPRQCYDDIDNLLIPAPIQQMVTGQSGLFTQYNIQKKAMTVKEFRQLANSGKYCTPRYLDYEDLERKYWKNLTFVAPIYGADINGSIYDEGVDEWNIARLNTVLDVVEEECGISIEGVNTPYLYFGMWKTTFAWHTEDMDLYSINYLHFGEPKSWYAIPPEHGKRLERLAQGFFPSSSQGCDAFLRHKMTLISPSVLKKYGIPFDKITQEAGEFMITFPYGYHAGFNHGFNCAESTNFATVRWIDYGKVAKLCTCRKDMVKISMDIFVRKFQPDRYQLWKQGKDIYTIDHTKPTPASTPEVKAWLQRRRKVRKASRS
# Experiment: JMJD2C in vitro enzyme inhibition assay (TR-FRET)
# Format: biochemical
smiles,measurement,value
"O=C(O)c1ccncc1Nc1nn(C2CCOC2)c2c1CCCC2 (stereo not shown) [Example 65, 3-{[1-(tetrahydrofuran-3-yl)-4,5,6,7-tetrahydro-1H-indazol-3-yl]amino}pyridine-4-carboxylic acid]",IC50,100 to 1000 nM
